In PubChem BioAssay AID680 (PCMD, 2007):
The list shows a part of the results, in another mix than the full data. Activity calls are given as the source filed them. Rule as the data show it: active = inhibition above about 20% (passing the limit was not always enough); inactive = the rest.

Sequences of proteins named here, by UniProt entry; tags and fusion partners are left off. Residues count along the entry.
UniProt P03951, 19-387 limits assumed: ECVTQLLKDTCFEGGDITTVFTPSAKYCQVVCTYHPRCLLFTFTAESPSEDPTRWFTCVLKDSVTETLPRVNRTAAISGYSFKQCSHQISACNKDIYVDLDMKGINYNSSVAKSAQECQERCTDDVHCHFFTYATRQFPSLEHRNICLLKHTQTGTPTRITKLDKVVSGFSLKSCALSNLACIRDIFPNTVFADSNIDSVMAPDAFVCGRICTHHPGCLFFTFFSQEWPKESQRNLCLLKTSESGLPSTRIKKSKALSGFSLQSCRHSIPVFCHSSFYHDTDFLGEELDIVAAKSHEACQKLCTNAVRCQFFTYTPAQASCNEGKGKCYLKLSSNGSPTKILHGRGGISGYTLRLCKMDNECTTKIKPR
UniProt P03951, 388-625 limits assumed: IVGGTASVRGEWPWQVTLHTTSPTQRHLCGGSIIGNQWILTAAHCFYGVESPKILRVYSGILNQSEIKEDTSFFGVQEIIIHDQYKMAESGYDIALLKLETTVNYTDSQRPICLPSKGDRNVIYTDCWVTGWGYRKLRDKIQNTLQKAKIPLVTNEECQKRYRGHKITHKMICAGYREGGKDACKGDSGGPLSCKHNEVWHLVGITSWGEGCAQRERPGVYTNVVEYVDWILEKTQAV

What follows are molecules tested against Coagulation factor XI (Homo sapiens) (UniProt P03951) (assay: FXIa protease inhibitors in compound pools, primary screen, biochemical, 10-compound mixtures (AID 680;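 also: each value is inhibition by a whole ten-compound pool holding the compound; 0% = enzyme with no mixture and 100% = wells lacking enzyme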)). Conditions: purified FXIa, fluorogenic substrate, pooled mixtures; at 5 µM; hits give high values.

Question: Which inhibition does the source give for `COc1ccccc1OP(C)(=O)Nc1ccc(C)cc1` (stereo not drawn) here?
Answer: Its inhibition is inactive: 6.71%.

Question: `Cc1ccc(NP(C)(=O)Oc2ccccc2)c(C)c1` (stereo not drawn) was tested. Which inhibition did it give?
Answer: The inhibition was inactive: 6.73%.

Question: For `CCOP(C)(=S)SCC(=O)NC(C)C(=O)O` (stereo not drawn), which inhibition is on record?
Answer: The inhibition was inactive: -2.4%.

Question: For `CP(=O)(NC(=O)Nc1ccccc1)Oc1ccccc1` (stereo not drawn), which inhibition is on record?
Answer: The inhibition was inactive: 10.1%.

Question: For `CP(=S)(Nn1cnnc1)Oc1ccccc1` (stereo not drawn), which inhibition is on record?
Answer: The inhibition was inactive: -2.92%.

Question: How did the inhibition turn out when `Cc1nc2ccc3ccccc3c2s1.O=[N+]([O-])c1cc([N+](=O)[O-])c(O)c([N+](=O)[O-])c1` was run?
Answer: Its inhibition is inactive: 6.01%.

Question: For `Cc1ccc(C)c(NP(C)(=O)Oc2ccccc2)c1` (stereo not drawn), which inhibition is on record?
Answer: The inhibition was inactive: 11.1%.

Question: How did the inhibition turn out when `CP(=O)(Nc1ccccc1F)Oc1ccccc1` (stereo not drawn) was run?
Answer: The inhibition was inactive: 4.75%.

Question: With `Cc1ccccc1NP(C)(=O)Nc1ccccc1C` as the molecule, how does the inhibition read?
Answer: The inhibition was inactive: 1.9%.

Question: Which inhibition does the source give for `CP(=O)(Nc1ccc2c(c1)OCCO2)Oc1ccccc1` (stereo not drawn) here?
Answer: Its inhibition is inactive: 1.8%.

Question: With `CCOP(C)(=S)SCC(=O)NC(C)(CC)C(=O)O` (stereo not drawn) as the molecule, how does the inhibition read?
Answer: The inhibition was inactive: 0.93%.

Question: With `CN(C)CCOC(=O)C(O)(c1ccccc1)C1CCCCC1` (stereo not drawn) as the molecule, how does the inhibition read?
Answer: Its inhibition is inactive: -2.93%.

Question: Which inhibition does the source give for `CP(=O)(Oc1ccccc1)N1CCOC1=O` (stereo not drawn) here?
Answer: Its inhibition is inactive: 0.1%.

Question: With `COc1ccccc1OP(C)(=O)Nc1c(C)n(C)n(-c2ccccc2)c1=O` (stereo not drawn) as the molecule, how does the inhibition read?
Answer: The inhibition was inactive: 0.525%.

Question: `CCN(CC)CC(O)COC(=O)C(O)(c1ccccc1)C1CCCCC1` (stereo not drawn) was tested. Which inhibition did it give?
Answer: The inhibition was inactive: 6.03%.

Question: Which inhibition does the source give for `CP(=O)(Nc1ccccn1)Oc1ccccc1` (stereo not drawn) here?
Answer: The inhibition was inactive: 3.92%.

Question: Which inhibition does the source give for `Cc1nc2ccc3ccccc3c2o1.O=[N+]([O-])c1cc([N+](=O)[O-])c(O)c([N+](=O)[O-])c1` here?
Answer: Its inhibition is inactive: 1.16%.

Question: Which inhibition does the source give for `COc1ccccc1OP(C)(=O)Nc1ccc(C)c(C)c1` (stereo not drawn) here?
Answer: Its inhibition is inactive: -0.03%.
